Assay results: patent publication US11066368B2, “Process for the preparation and particle size reduction of pirfenidone” (Laurus Labs Limited, priority 2016, dated 2021)

Assay: Shock sensitive test by fall hammer test
Settings: hammer 5 kg, height 80 cm

Cc1ccc(=O)n(-c2ccccc2)c1 [Pirfenidone, 5-methyl-1-phenyl-2-1(H)-pyridone]
Shock sensitivity (fall hammer result): Detonation was observed
